Source: PMC4059246 (Journal of Medicinal Chemistry, 2014)

System: RPA194
Conditions: for Effect on expression of RPA194: U2OS cells, 0.5 μM, 3 h, representative images (Figure 2A); for Biological activity (in words): RPA194 and NCL assays in U2OS cells

SMILES | Effect on expression of RPA194 | further results
CN(C)CCNC(=O)c1cccn2c(=O)c3cc4ccccc4cc3nc12 [Compound 2, N-[2-(Dimethylamino)ethyl]-12-oxo-12H-benzo[g]pyrido[2,1-b]quinazoline-4-carboxamide] | almost complete loss of expression of RPA194 | 
O=C(NCCN1CCCCC1)c1cccn2c(=O)c3cc4ccccc4cc3nc12 [Compound 8, 12-Oxo-N-[2-(1-piperidyl)ethyl]-12H-benzo[g]pyrido[2,1-b]quinazoline-4-carboxamide] | almost complete loss of expression of RPA194 | 
CCN(CC)CCNC(=O)c1cccn2c(=O)c3cc4ccccc4cc3nc12 [Compound 10, N-[2-(Diethylamino)ethyl]-12-oxo-12H-benzo[g]pyrido[2,1-b]quinazoline-4-carboxamide] | almost complete loss of expression of RPA194 | 
CC(CN(C)C)NC(=O)c1cccn2c(=O)c3cc4ccccc4cc3nc12 (stereo not shown) [Compound 11, N-[2-(Dimethylamino)-1-methylethyl]-12-oxo-12H-benzo[g]pyrido[2,1-b]quinazoline-4-carboxamide] | almost complete loss of expression of RPA194 | 
O=C(NC1CNC1)c1cccn2c(=O)c3cc4ccccc4cc3nc12 [Compound 12, N-(Azetidin-3-yl)-12-oxo-12H-benzo[g]pyrido[2,1-b]quinazoline-4-carboxamide] | almost complete loss of expression of RPA194 | 
CN(C)CCCCNC(=O)c1cccn2c(=O)c3cc4ccccc4cc3nc12 [Compound 14, N-[4-(Dimethylamino)butyl]-12-oxo-12H-benzo[g]pyrido[2,1-b]quinazoline-4-carboxamide] | no effect | 
CN(C)CCN(C)C(=O)c1cccn2c(=O)c3cc4ccccc4cc3nc12 [Compound 18, N-[2-(Dimethylamino)ethyl]-N-methyl-12-oxo-12H-benzo[g]pyrido[2,1-b]quinazoline-4-carboxamide] |  | Decrease in potency relative to compound 2: either inactive or caused >400-fold decrease in potency
CC(C)(C)OC(=O)N1CC(NC(=O)c2cccn3c(=O)c4cc5ccccc5cc4nc23)C1 [Compound 30, tert-Butyl 3-[(12-Oxo-12H-benzo[g]pyrido[2,1-b]quinazoline-4-carbonyl)amino]azetidine-1-carboxylate] |  | Biological activity (in words): inactive
CN1CCC(N(C)C(=O)c2cccn3c(=O)c4cc5ccccc5cc4nc23)C1 (stereo not shown) [Compound 32, N-Methyl-N-(1-methylpyrrolidin-3-yl)-12-oxo-12H-benzo[g]pyrido[2,1-b]quinazoline-4-carboxamide] |  | Biological activity (in words): inactive
O=C(NCCN1CCOCC1)c1cccn2c(=O)c3cc4ccccc4cc3nc12 [Compound 36, N-(2-Morpholinoethyl)-12-oxo-12H-benzo[g]pyrido[2,1-b]quinazoline-4-carboxamide] | no effect | 
